Assay results published in PMC3794980, “Identification of Conserved and HLA Promiscuous DENV3 T-Cell Epitopes” (PLoS Neglected Tropical Diseases, 2013).

Legend:
Assay in all cases: biochemical
Type in all cases: binding
[1] = target: DRB1*1302 (Homo sapiens, UniProt P01903+P01911, A100E/A169T/K41T/L162R/M171V/P40S/Q125H/Q178H/Q39Y/Q99D/R42S/S66N/T262R/V115G/W38E/Y61H)
[2] = target: DRB1*0405 (Homo sapiens, UniProt P01903+P01911, A100R/A169T/D86S/F76Y/I96L/K127E/L162R/M171V/N62H/P40V/Q125Y/R42H/S133A/S149N/S66Y/V115G/V209L/W38E)
[3] = target: DRB1*0802 (Homo sapiens, UniProt P01903+P01911, A100R/A103L/A169T/F76Y/H45Y/I96F/K41T/L162R/M171V/P40S/Q125H/Q178H/Q39Y/Q99D/R218S/R42G/S66Y/V115G/W38E)
[4] = target: DRB1*0101 (Homo sapiens, UniProt P01903+P01911, A100R/D57E/F55L/F60I/F76Y/I96L/L162R/M171V/P40L/Q125E/R42F/V115G/Y59C)
[5] = target: DRB1*0401 (Homo sapiens, UniProt P01903+P01911, A100K/A169T/F76Y/I96L/K127E/L162R/M171V/N62H/P40V/Q125Y/R42H/S133A/S149N/S66Y/V115G/V209L/W38E)
[6] = target: DRB4*0101 (Homo sapiens, UniProt P01903+P13762, G164S); conditions: read-out: Binding Affinity (nM) DRB4*0101
[7] = target: DRB1*1501 (Homo sapiens, UniProt P01903+P01911)
[8] = target: DRB1*0901 (Homo sapiens, UniProt P01903+P01911, A100R/A103E/D57H/D86V/F55Y/F60I/F76Y/I96F/K127E/L162R/M171V/P40D/Q125H/Q99R/R33Q/R42F/S133A/S66N/T210M/V115G/W38K/Y107V/Y59G/Y89S)
[9] = target: DRB1*0301 (Homo sapiens, UniProt P01903+P01911, A100K/A102G/A103R/A169T/F55Y/I96L/K41T/L162R/M171V/P40S/Q125H/Q178H/Q39Y/R42S/S66N/T106N/T262R/W38E/Y61H)
[10] = target: DRB1*0404 (Homo sapiens, UniProt P01903+P01911, A100R/A169T/F76Y/I96L/K127E/L162R/M171V/N62H/P40V/Q125Y/R42H/S133A/S149N/S66Y/V209L/W38E)
[11] = target: DRB1*1101 (Homo sapiens, UniProt P01903+P01911, A100R/A169T/A87E/I96F/K41T/L162R/M171V/P40S/Q125H/Q178H/Q39Y/Q99D/R42S/S66Y/T262R/V115G/W38E)
[12] = target: DRB1*0701 (Homo sapiens, UniProt P01903+P01911, A100R/A102G/A103Q/D57E/D86V/E43K/F76Y/K127E/L162R/M171V/P40G/Q125H/Q99D/R33Q/R42Y/R54Q/S133A/S66F/T210M/V115G/Y107V/Y59L/Y89S)
[13] = competitive inhibition of radiolabeled standard peptide, DRB1*1302, read-out: Binding Affinity (nM) DRB1*1302
[14] = competitive inhibition of radiolabeled standard peptide, DRB1*0901, read-out: Binding Affinity (nM) DRB1*0901

CC[C@H](C)[C@H](NC(=O)[C@H](CO)NC(=O)[C@@H]1CCCN1C(=O)[C@@H](NC(=O)[C@H](Cc1ccccc1)NC(=O)[C@H](Cc1c[nH]c2ccccc12)NC(=O)[C@@H](NC(=O)[C@@H](NC(=O)[C@H](CCCCN)NC(=O)CNC(=O)[C@H](C)NC(=O)[C@H](Cc1ccccc1)NC(=O)[C@H](CC(=O)O)NC(=O)[C@@H](N)[C@@H](C)O)[C@@H](C)O)C(C)C)C(C)C)C(=O)N[C@@H](CCCCN)C(=O)O [NS3 353-367]
IC50 [1, 13]: > 20000 nM | IC50 [2]: 0.884 µM | IC50 [3]: 1.61 µM | IC50 [4]: 1070 nM | IC50 [5]: 4.19 µM | IC50 [6]: > 20000 nM | IC50 [7]: 2690 nM | IC50 [8, 14]: 2150 nM | IC50 [9]: 16.6 µM | IC50 [10]: 0.858 µM

CC(C)C[C@H](NC(=O)[C@H](CCCCN)NC(=O)[C@@H](NC(=O)[C@H](CCCCN)NC(=O)[C@H](CCC(N)=O)NC(=O)[C@H](Cc1ccc(O)cc1)NC(=O)[C@H](CCC(=O)O)NC(=O)[C@@H](N)[C@@H](C)O)[C@@H](C)O)C(=O)N[C@@H](CC(N)=O)C(=O)N[C@@H](CC(=O)O)C(=O)N[C@@H](Cc1c[nH]c2ccccc12)C(=O)N[C@@H](CC(=O)O)C(=O)N[C@@H](Cc1ccccc1)C(=O)N[C@H](C(=O)N[C@H](C(=O)O)C(C)C)C(C)C [NS3 393-407]
IC50 [11]: 5940 nM | IC50 [1]: 17800 nM | IC50 [2]: 7.33 µM | IC50 [12]: 456 nM | IC50 [3]: 8.8 µM | IC50 [4]: 7650 nM | IC50 [5]: 10.8 µM | IC50 [6]: > 20000 nM | IC50 ([7]; read-out: Binding Affinity (nM) DRB1*1501): > 20000 nM | IC50 [8]: 11500 nM | IC50 [9]: 1.66 µM | IC50 [10]: 8.12 µM

CC[C@H](C)[C@H](NC(=O)[C@H](CC(=O)O)NC(=O)[C@@H](N)[C@@H](C)O)C(=O)N[C@@H](CO)C(=O)N[C@@H](CCC(=O)O)C(=O)N[C@@H](CCSC)C(=O)NCC(=O)N[C@@H](C)C(=O)N[C@@H](CC(N)=O)C(=O)N[C@@H](Cc1ccccc1)C(=O)N[C@@H](CCCCN)C(=O)N[C@@H](C)C(=O)N[C@@H](CC(=O)O)C(=O)N[C@@H](CCCNC(=N)N)C(=O)N[C@H](C(=O)O)C(C)C [NS3 409-423]
IC50 ([11]; read-out: Binding Affinity (nM) DRB1*1101): > 20000 nM | IC50 [1, 13]: 4060 nM | IC50 [2]: 4.66 µM | IC50 [12]: 19000 nM | IC50 [3]: 5.1 µM | IC50 [4]: 7720 nM | IC50 [5]: 1.82 µM | IC50 [6]: > 20000 nM | IC50 [7]: 10800 nM | IC50 [8, 14]: 18000 nM | IC50 [9]: 0.47 µM | IC50 [10]: 12.1 µM

CC[C@H](C)[C@H](NC(=O)[C@@H](NC(=O)[C@H](CCCNC(=N)N)NC(=O)[C@H](CC(=O)O)NC(=O)[C@H](C)NC(=O)[C@H](CCCCN)NC(=O)[C@H](Cc1ccccc1)NC(=O)[C@H](CC(N)=O)NC(=O)[C@H](C)NC(=O)CNC(=O)[C@H](CCSC)NC(=O)[C@@H](N)CCC(=O)O)C(C)C)C(=O)N[C@@H](CC(=O)O)C(=O)N1CCC[C@H]1C(=O)N[C@@H](CCCNC(=N)N)C(=O)O [NS3 413-427]
IC50 [11]: 7130 nM | IC50 [1]: 3230 nM | IC50 [2]: 1.76 µM | IC50 ([12]; read-out: Binding Affinity (nM) DRB1*0701): > 20000 nM | IC50 [3]: 11.2 µM | IC50 ([4]; read-out: Binding Affinity (nM) DRB1*0101): > 20000 nM | IC50 [5]: 0.04 µM | IC50 [6]: > 20000 nM | IC50 [7]: 9350 nM | IC50 ([8]; read-out: Binding Affinity (nM) DRB1*0901): > 20000 nM | IC50 [9]: 0.261 µM | IC50 [10]: 3.11 µM

CC(C)C[C@H](NC(=O)CNC(=O)[C@H](CCC(=O)O)NC(=O)CNC(=O)[C@H](CCC(=O)O)NC(=O)[C@@H](NC(=O)CNC(=O)[C@H](CO)NC(=O)[C@H](Cc1ccc(O)cc1)NC(=O)[C@H](CO)NC(=O)[C@H](CC(N)=O)NC(=O)[C@H](CCC(=O)O)NC(=O)[C@H](CCCNC(=N)N)NC(=O)[C@H](CO)NC(=O)[C@H](Cc1ccccc1)NC(=O)[C@H](Cc1c[nH]c2ccccc12)NC(=O)[C@@H](N)Cc1c[nH]cn1)C(C)C)C(=O)O [NS5 495-511]
IC50 [11]: 11100 nM | IC50 [1, 13]: > 20000 nM | IC50 [2]: 1.75 µM | IC50 [12]: 190 nM | IC50 [3]: 5.4 µM | IC50 [4]: 121 nM | IC50 [5]: 0.015 µM | IC50 [6]: > 20000 nM | IC50 [7]: 5560 nM | IC50 [8, 14]: 448 nM | IC50 [9]: 5.78 µM | IC50 [10]: 1.05 µM

Like-named read-outs stand apart in the source and are kept apart here.
